Key:
Assay in all cases: biochemical
p70S6K(h) = p70S6K(h) (Homo sapiens, UniProt P23443)
EphA1(h) = EphA1(h) (Homo sapiens, UniProt P21709)
PAK1(h) = PAK1(h) (Homo sapiens, UniProt Q13153)
GRK7(h) = GRK7(h) (Homo sapiens, UniProt Q8WTQ7)
OTU1 = OTU1 (Homo sapiens, UniProt Q5VVQ6); conditions: read-out: Activity (% Control)
MRCKgamma(h) = MRCKgamma(h) (Homo sapiens, UniProt Q6DT37)
OSR1(h) = OSR1(h) (Homo sapiens, UniProt O95747)
JNK2alpha2(h) = JNK2alpha2(h) (Homo sapiens, UniProt P45984)
Angiotensin AT2 = Angiotensin AT2 (Homo sapiens, UniProt P50052); conditions: read-out: % Inh.
MYO3B(h) = MYO3B(h) (Homo sapiens, UniProt Q8WXR4)
NEK3(h) = NEK3(h) (Homo sapiens, UniProt P51956)
Rse(h) = Rse(h) (Homo sapiens, UniProt Q06418)
MARK1(h) = MARK1(h) (Homo sapiens, UniProt Q9P0L2)
EphA8(h) = EphA8(h) (Homo sapiens, UniProt P29322)
USP30 = USP30 (Homo sapiens, UniProt Q70CQ3); conditions: read-out: Activity (% Control)
IR(h), activated = IR(h), activated (Homo sapiens, UniProt P06213)
Phosphodiesterase PDE5 = Phosphodiesterase PDE5 (Homo sapiens, UniProt O76074); conditions: read-out: % Inh.
LIMK2(h) = LIMK2(h) (Homo sapiens, UniProt P53671)
[1] = molecular target: Nitric Oxide Synthase, Neuronal (nNOS) (Homo sapiens, UniProt P29475); conditions: read-out: % Inh.
Pim-3(h) = Pim-3(h) (Homo sapiens, UniProt Q86V86)
SRPK2(h) = SRPK2(h) (Homo sapiens, UniProt P78362)
Cezanne = Cezanne (Homo sapiens, UniProt Q6GQQ9); conditions: read-out: Activity (% Control)
TGFBR2(h) = TGFBR2(h) (Homo sapiens, UniProt P37173)
CDK12/cyclinK(h) = CDK12/cyclinK(h) (Homo sapiens, UniProt Q9NYV4)
ALK(h) = ALK(h) (Homo sapiens, UniProt Q9UM73)
USP2 = USP2 (Homo sapiens, UniProt O75604); conditions: read-out: Activity (% Control)
CaMKIdelta(h) = CaMKIdelta(h) (Homo sapiens, UniProt Q8IU85)
SRMS(h) = SRMS(h) (Homo sapiens, UniProt Q9H3Y6)
EphA5(h) = EphA5(h) (Homo sapiens, UniProt P54756)
SNRK(h) = SNRK(h) (Homo sapiens, UniProt Q9NRH2)
SLK(h) = SLK(h) (Homo sapiens, UniProt Q9H2G2)
Glucocorticoid = Glucocorticoid (Homo sapiens, UniProt P04150); conditions: read-out: % Inh.
Rsk3(h) = Rsk3(h) (Homo sapiens, UniProt Q15349)
Pim-1(h) = Pim-1(h) (Homo sapiens, UniProt P11309)
Adenosine A3 = Adenosine A3 (Homo sapiens, UniProt P0DMS8); conditions: read-out: % Inh.
DAPK1(h) = DAPK1(h) (Homo sapiens, UniProt P53355)
CDK9/cyclin T1(h) = CDK9/cyclin T1(h) (Homo sapiens, UniProt P50750)
NEK1(h) = NEK1(h) (Homo sapiens, UniProt Q96PY6)
EphA7(h) = EphA7(h) (Homo sapiens, UniProt Q15375)
IRR(h) = IRR(h) (Homo sapiens, UniProt P14616)
ZIPK(h) = ZIPK(h) (Homo sapiens, UniProt O43293)

Protein sequences, listed by entry. Tags and fused reporters are not part of them. Lines headed by an entry give the natural chain unless they say otherwise; changes in a name come on top. Residues count along the entry.
UniProt O95747, whole entry: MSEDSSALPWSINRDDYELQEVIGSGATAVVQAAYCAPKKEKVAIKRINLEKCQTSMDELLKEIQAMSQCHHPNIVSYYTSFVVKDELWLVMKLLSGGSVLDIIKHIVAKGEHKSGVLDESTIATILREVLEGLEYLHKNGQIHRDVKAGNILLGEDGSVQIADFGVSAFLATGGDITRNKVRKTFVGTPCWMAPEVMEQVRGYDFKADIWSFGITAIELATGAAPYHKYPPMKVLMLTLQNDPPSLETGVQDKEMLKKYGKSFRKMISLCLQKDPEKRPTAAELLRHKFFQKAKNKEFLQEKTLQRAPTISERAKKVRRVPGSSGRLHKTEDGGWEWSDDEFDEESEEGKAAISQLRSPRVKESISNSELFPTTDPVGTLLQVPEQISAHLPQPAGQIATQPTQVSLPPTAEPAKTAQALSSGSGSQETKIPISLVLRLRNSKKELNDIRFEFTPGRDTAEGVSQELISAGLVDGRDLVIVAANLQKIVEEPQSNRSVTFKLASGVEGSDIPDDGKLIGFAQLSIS
UniProt Q70CQ3, 57-517: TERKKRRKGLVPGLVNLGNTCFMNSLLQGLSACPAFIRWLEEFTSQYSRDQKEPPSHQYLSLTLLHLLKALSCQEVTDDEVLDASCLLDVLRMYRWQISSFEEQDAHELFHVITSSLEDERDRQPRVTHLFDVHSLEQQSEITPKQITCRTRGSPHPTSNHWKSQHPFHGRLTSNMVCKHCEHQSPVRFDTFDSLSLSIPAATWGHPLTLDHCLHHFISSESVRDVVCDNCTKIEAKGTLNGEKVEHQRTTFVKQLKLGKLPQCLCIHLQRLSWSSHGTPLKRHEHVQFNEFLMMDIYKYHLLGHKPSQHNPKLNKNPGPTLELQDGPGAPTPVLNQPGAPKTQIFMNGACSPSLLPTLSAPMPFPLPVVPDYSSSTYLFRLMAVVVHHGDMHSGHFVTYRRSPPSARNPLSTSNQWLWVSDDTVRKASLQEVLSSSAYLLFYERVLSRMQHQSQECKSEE
UniProt P06213, 28-1382: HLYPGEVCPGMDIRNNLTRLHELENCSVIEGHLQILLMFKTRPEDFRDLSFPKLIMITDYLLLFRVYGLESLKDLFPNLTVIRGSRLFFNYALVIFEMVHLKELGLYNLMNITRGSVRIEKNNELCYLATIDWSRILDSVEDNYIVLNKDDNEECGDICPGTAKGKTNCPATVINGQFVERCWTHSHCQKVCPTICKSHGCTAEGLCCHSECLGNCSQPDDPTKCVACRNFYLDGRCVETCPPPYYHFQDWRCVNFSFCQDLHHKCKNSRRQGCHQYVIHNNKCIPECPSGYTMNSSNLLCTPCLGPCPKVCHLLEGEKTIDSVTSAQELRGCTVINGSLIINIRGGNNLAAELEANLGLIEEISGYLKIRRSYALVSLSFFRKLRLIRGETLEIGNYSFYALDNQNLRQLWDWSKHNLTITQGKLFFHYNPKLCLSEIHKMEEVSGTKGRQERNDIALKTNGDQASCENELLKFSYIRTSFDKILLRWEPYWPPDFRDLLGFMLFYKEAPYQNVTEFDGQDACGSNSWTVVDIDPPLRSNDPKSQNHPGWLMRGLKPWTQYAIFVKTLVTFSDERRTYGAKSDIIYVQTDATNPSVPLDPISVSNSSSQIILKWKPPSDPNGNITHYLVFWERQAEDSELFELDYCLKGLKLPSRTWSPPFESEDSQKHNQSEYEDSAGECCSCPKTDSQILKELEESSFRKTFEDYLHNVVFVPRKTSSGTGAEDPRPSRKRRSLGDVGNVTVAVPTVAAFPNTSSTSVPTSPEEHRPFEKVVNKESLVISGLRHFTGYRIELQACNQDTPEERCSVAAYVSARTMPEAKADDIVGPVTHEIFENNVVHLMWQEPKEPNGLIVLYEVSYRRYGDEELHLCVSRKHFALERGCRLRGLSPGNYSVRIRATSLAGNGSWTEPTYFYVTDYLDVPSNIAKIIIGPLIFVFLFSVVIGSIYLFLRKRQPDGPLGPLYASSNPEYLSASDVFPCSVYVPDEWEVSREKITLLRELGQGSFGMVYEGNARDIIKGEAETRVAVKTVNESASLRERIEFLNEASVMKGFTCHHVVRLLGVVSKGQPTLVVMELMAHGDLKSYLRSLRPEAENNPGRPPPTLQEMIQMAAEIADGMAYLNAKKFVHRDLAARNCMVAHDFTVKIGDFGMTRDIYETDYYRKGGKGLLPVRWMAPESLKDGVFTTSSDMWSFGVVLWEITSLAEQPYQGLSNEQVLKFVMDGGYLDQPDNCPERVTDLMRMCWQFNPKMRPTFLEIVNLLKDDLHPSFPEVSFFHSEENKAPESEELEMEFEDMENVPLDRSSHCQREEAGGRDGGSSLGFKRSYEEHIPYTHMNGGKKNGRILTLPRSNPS
UniProt Q9UM73, 19-1620: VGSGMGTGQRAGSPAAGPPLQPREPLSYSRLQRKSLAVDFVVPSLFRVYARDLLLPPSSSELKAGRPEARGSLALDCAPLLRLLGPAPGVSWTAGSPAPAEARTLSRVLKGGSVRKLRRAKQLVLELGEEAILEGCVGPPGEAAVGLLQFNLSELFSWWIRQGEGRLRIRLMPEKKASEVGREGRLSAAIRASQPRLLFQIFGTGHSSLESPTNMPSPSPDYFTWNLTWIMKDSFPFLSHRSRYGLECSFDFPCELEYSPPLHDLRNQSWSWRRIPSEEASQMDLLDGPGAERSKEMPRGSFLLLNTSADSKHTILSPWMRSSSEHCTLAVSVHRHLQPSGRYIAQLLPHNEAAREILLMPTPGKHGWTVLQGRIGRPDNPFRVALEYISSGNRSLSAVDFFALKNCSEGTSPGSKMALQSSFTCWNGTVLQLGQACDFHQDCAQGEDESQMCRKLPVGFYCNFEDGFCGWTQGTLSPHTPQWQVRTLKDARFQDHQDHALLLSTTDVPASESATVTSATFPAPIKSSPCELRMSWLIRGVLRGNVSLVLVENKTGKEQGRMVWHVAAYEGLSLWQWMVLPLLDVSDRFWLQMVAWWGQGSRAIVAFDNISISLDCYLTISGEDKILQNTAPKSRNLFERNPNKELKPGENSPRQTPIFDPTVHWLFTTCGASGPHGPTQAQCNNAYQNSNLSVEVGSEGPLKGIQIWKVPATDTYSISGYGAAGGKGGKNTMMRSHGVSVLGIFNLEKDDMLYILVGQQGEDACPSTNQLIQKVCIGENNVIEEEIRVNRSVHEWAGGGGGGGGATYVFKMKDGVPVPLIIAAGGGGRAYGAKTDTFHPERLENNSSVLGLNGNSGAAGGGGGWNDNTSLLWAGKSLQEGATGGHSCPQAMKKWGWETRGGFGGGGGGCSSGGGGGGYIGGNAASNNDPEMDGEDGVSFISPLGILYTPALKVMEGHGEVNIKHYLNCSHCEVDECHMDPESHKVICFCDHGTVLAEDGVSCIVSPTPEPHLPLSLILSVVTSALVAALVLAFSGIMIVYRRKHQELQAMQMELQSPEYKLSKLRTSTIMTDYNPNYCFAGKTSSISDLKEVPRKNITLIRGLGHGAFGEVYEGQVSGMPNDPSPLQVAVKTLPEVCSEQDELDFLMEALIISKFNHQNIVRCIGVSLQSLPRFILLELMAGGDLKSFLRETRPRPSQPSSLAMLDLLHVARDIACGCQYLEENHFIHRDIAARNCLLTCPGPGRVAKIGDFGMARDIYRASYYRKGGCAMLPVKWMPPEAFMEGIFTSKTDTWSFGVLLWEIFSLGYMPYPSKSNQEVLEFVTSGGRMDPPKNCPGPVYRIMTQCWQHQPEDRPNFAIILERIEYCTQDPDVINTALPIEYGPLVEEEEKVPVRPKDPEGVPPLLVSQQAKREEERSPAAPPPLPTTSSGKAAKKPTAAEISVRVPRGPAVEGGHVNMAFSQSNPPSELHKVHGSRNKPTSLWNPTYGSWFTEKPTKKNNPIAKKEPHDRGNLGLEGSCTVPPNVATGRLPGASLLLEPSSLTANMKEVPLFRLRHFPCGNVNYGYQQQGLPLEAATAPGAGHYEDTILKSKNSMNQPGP
UniProt O75604: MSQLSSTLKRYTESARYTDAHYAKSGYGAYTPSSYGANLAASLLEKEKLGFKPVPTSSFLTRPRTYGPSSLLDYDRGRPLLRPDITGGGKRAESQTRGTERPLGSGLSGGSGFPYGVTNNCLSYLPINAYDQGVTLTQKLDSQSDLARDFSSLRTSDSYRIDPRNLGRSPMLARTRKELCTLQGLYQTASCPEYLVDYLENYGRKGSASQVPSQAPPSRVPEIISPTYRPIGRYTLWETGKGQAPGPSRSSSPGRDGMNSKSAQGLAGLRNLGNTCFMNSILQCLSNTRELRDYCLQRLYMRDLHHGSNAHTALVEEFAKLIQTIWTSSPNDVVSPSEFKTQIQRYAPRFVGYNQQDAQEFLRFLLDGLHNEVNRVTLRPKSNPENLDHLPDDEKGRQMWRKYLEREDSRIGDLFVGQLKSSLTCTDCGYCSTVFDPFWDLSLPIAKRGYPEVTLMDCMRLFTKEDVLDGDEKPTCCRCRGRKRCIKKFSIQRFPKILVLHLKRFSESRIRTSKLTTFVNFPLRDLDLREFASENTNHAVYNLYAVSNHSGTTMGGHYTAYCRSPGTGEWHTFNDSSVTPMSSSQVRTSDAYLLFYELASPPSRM
UniProt Q8IU85: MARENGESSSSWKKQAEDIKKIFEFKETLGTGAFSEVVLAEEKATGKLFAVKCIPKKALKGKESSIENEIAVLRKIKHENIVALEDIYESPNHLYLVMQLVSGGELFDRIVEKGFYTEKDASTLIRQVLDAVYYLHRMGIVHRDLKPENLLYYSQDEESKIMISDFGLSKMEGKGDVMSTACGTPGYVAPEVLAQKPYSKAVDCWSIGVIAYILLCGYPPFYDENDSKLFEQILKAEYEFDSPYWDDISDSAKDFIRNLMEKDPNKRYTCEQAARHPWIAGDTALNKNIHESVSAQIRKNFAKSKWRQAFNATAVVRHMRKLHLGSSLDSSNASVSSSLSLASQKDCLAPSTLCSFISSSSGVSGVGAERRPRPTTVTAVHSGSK
UniProt P14616, 27-1297: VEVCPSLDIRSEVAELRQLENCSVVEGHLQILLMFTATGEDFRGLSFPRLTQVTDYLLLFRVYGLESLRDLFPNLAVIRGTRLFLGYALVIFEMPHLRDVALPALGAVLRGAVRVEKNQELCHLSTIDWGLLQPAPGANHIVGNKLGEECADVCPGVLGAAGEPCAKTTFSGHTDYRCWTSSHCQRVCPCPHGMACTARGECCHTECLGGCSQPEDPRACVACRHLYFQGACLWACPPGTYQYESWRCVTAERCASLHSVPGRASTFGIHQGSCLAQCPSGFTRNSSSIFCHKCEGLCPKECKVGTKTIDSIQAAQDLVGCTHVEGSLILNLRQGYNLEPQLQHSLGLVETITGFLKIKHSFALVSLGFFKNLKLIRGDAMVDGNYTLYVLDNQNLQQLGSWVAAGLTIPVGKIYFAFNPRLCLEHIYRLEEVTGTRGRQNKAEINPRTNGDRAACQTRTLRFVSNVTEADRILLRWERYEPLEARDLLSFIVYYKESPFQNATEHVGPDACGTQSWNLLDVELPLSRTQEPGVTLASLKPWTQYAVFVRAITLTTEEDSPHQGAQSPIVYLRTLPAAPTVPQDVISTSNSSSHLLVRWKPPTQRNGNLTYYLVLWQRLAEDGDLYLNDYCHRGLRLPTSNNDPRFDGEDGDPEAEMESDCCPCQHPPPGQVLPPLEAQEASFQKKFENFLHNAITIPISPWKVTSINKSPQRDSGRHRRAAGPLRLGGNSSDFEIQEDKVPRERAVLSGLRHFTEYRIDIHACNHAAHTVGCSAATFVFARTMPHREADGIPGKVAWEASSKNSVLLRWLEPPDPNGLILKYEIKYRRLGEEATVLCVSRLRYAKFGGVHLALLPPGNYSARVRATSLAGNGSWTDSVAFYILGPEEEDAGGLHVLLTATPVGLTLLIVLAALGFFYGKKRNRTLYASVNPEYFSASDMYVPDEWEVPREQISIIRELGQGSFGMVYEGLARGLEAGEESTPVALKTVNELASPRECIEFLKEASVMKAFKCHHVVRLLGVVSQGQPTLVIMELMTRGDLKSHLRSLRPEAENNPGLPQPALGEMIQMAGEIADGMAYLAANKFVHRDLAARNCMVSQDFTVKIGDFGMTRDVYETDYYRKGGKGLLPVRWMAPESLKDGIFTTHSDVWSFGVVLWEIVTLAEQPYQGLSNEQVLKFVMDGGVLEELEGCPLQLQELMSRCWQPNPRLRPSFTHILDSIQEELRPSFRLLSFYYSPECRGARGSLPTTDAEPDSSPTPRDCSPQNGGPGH

For `CC(C)C[C@H](NC(=O)C1(C(F)(F)F)CCCCC1)C(=O)Nc1nnc(Cc2ccc(C#N)cc2)s1` [Compound 22, CC(C)C[C@H](NC(=O)C1(CCCCC1)C(F)(F)F)C(=O)Nc2nnc(Cc3ccc(cc3)C#N)s2], the inhibition at 10 µM (p70S6K(h)) was -3.21%, the inhibition at 10 µM (EphA1(h)) was -8.87% and the inhibition at 10 µM (PAK1(h)) was 11.1%. It also gave an inhibition at 10 µM (GRK7(h)) of -4.53%, a remaining activity at 1 µM (OTU1) of 103% and a remaining activity at 10 µM (OTU1) of 113%. For the same compound, the inhibition at 10 µM (MRCKgamma(h)) was -2.61%, the inhibition at 10 µM (OSR1(h)) was -14.9% and the inhibition at 10 µM (JNK2alpha2(h)) was 6.67%. It also gave an inhibition at 10 µM (Angiotensin AT2) of -2%, an inhibition at 10 µM (MYO3B(h)) of 3.59% and an inhibition at 10 µM (NEK3(h)) of 9.85%. The inhibition at 10 µM (Rse(h)) was 13.6%, the inhibition at 10 µM (MARK1(h)) was 8.84% and the inhibition at 10 µM (EphA8(h)) was -0.72%. It also gave a remaining activity at 10 µM (USP30) of 74%, a remaining activity at 50 µM (USP30) of 65% and an inhibition at 10 µM (IR(h), activated) of -1.5%. It also gave an inhibition at 10 µM (Phosphodiesterase PDE5) of 27%, an inhibition at 10 µM (LIMK2(h)) of -0.4% and an inhibition at 10 µM [1] of -5%. It also gave an inhibition at 10 µM (Pim-3(h)) of 5.7%, an inhibition at 10 µM (SRPK2(h)) of 0.9% and a remaining activity at 1 µM (Cezanne) of 104%. The remaining activity at 10 µM (Cezanne) was 93%, the inhibition at 10 µM (TGFBR2(h)) was -0.85% and the inhibition at 10 µM (CDK12/cyclinK(h)) was 9.09%. The inhibition at 10 µM (ALK(h)) was 11.5%, the remaining activity at 1 µM (USP2) was 100% and the remaining activity at 10 µM (USP2) was 82%. For the same compound, the inhibition at 10 µM (CaMKIdelta(h)) was -10.5%, the inhibition at 10 µM (SRMS(h)) was 10.2% and the inhibition at 10 µM (EphA5(h)) was -2.12%. For the same compound, the inhibition at 10 µM (SNRK(h)) was 0.06%, the inhibition at 10 µM (SLK(h)) was 1.74% and the inhibition at 10 µM (Glucocorticoid) was 43%. The inhibition at 10 µM (Rsk3(h)) was 0.77%, the inhibition at 10 µM (Pim-1(h)) was 12.6% and the inhibition at 10 µM (Adenosine A3) was 24%. The inhibition at 10 µM (DAPK1(h)) was 0.15%, the inhibition at 10 µM (CDK9/cyclin T1(h)) was -1.35% and the inhibition at 10 µM (NEK1(h)) was 13%. The inhibition at 10 µM (EphA7(h)) was 4.64%, the inhibition at 10 µM (IRR(h)) was 3.88% and the inhibition at 10 µM (ZIPK(h)) was 1.95%.

For `CC(C)C[C@@H](NC(=O)C1(C(F)(F)F)CCCCC1)C(=O)Nc1nnc(Cc2ccc(C#N)cc2)s1` [Compound 21, N-[(1R)-1-[[5-[(4-Cyanophenyl)methyl]-1,3,4-thiadiazol-2-yl]carbamoyl]-3-methyl-butyl]-1-(trifluoromethyl)cyclohexanecarboxamide], the inhibition at 10 µM (p70S6K(h)) was 2.52%, the inhibition at 10 µM (EphA1(h)) was 4.63% and the inhibition at 10 µM (PAK1(h)) was -1.95%. The inhibition at 10 µM (GRK7(h)) was -0.84%, the remaining activity at 1 µM (OTU1) was 104% and the remaining activity at 10 µM (OTU1) was 104%. For the same compound, the inhibition at 10 µM (MRCKgamma(h)) was 5.33%, the inhibition at 10 µM (OSR1(h)) was -11.2% and the inhibition at 10 µM (JNK2alpha2(h)) was 4.4%. For the same compound, the inhibition at 10 µM (Angiotensin AT2) was -3%, the inhibition at 10 µM (MYO3B(h)) was 2.08% and the inhibition at 10 µM (NEK3(h)) was 14.3%. The inhibition at 10 µM (Rse(h)) was 13.7%, the inhibition at 10 µM (MARK1(h)) was 12.6% and the inhibition at 10 µM (EphA8(h)) was 1.36%. The remaining activity at 10 µM (USP30) was 69%, the remaining activity at 50 µM (USP30) was 65% and the inhibition at 10 µM (IR(h), activated) was 12.9%. It also gave an inhibition at 10 µM (Phosphodiesterase PDE5) of 13%, an inhibition at 10 µM (LIMK2(h)) of 2.4% and an inhibition at 10 µM [1] of -15%. The inhibition at 10 µM (Pim-3(h)) was 2.4%, the inhibition at 10 µM (SRPK2(h)) was 9.6% and the remaining activity at 1 µM (Cezanne) was 102%. It also gave a remaining activity at 10 µM (Cezanne) of 99%, an inhibition at 10 µM (TGFBR2(h)) of 2.48% and an inhibition at 10 µM (CDK12/cyclinK(h)) of -5.64%. It also gave an inhibition at 10 µM (ALK(h)) of 9.29%, a remaining activity at 1 µM (USP2) of 93% and a remaining activity at 10 µM (USP2) of 102%. The inhibition at 10 µM (CaMKIdelta(h)) was -9.34%, the inhibition at 10 µM (SRMS(h)) was 20% and the inhibition at 10 µM (EphA5(h)) was 6.76%. It also gave an inhibition at 10 µM (SNRK(h)) of 8.39%, an inhibition at 10 µM (SLK(h)) of 6.3% and an inhibition at 10 µM (Glucocorticoid) of 14%. It also gave an inhibition at 10 µM (Rsk3(h)) of -1.16%, an inhibition at 10 µM (Pim-1(h)) of 15.1% and an inhibition at 10 µM (Adenosine A3) of 12%. It also gave an inhibition at 10 µM (DAPK1(h)) of 0.57%, an inhibition at 10 µM (CDK9/cyclin T1(h)) of -4.38% and an inhibition at 10 µM (NEK1(h)) of 13%. It also gave an inhibition at 10 µM (EphA7(h)) of -1.14%, an inhibition at 10 µM (IRR(h)) of -2.02% and an inhibition at 10 µM (ZIPK(h)) of -0.39%.

From PMC10009755, “Discovery and Characterization of BAY-805, a Potent and Selective Inhibitor of Ubiquitin-Specific Protease USP21” (Journal of Medicinal Chemistry, 2023)
